System: MDCK cell line
Test: MDCK cell permeability assay
Format: in vitro ADME
Settings: 1 μM, 2 h

Cc1ccc(NC(=O)c2ccc(CN3CCN(C)CC3)cc2)cc1Nc1nccc(-c2cccnc2)n1 [Imatinib, imatinib]
Papp (A-B) (10^−6, cm/s) (apical to basolateral): 7.69 10^−6, cm/s
Papp (B-A) (10^−6, cm/s) (basolateral to apical): 6.50 10^−6, cm/s
